Laboratory results reported in PubChem BioAssay AID1714 (Vanderbilt High Throughput Screening Facility, 2009).
This is a selection; strong and weak results do not stand in their true shares. Inconclusive results are not listed. Activity calls are given as the source filed them.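 How the source made its calls: active means thallium entry rate above the same plate's blocked-transporter control wells by more than 3 SD; inconclusive means the two repeat wells disagree; inactive means the rest.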

Test: KCC2 HEK cell Tl+ influx single-dose follow-up with bumetanide block (AID 1714);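 further: raw slope of fluorescence over initial fluorescence between 10 and 20 s after thallium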
Details: HEK293-KCC2 + bumetanide/ouabain, thallium flux FluoZin2; at 10 µM; active compounds read high
Summary of the method: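 material = KCC2-expressing HEK cells | reagent = thallium stimulus | compound dosing = 10 µM single dose | schedule = cells overnight at 37 °C, FluoZin2-AM dye loading 48 min | technique = kinetic FluoZin2 fluorescence, ex 480/em 540 nm | evaluation = normalized thallium flux slope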

SMILES	normalized thallium flux
O=c1c2cc([N+](=O)[O-])ccc2[nH]c2c([N+](=O)[O-])cc([N+](=O)[O-])cc12	active: 0.0476
C[N+]1=C2C=CC=CC=C2SC12C([N+](=O)[O-])=CC([N+](=O)[O-])=C[C-]2[N+](=O)[O-] (configuration not stated)	active: 0.0186
